Sequences of proteins named here, by UniProt entry; tags and fusion partners are left off.
UniProt P28223, whole entry: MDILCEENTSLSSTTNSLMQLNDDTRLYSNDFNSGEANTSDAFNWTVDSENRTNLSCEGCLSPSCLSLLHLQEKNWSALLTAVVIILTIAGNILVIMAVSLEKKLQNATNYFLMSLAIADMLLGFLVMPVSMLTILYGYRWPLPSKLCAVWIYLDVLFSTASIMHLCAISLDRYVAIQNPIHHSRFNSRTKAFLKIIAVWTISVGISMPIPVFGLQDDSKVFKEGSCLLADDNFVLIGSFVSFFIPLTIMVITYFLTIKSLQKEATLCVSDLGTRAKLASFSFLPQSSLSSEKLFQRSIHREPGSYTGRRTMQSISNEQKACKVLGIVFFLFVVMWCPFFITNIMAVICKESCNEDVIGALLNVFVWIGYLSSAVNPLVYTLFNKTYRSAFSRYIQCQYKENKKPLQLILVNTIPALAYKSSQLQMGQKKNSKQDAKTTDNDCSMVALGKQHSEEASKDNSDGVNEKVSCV
UniProt P31645, whole entry: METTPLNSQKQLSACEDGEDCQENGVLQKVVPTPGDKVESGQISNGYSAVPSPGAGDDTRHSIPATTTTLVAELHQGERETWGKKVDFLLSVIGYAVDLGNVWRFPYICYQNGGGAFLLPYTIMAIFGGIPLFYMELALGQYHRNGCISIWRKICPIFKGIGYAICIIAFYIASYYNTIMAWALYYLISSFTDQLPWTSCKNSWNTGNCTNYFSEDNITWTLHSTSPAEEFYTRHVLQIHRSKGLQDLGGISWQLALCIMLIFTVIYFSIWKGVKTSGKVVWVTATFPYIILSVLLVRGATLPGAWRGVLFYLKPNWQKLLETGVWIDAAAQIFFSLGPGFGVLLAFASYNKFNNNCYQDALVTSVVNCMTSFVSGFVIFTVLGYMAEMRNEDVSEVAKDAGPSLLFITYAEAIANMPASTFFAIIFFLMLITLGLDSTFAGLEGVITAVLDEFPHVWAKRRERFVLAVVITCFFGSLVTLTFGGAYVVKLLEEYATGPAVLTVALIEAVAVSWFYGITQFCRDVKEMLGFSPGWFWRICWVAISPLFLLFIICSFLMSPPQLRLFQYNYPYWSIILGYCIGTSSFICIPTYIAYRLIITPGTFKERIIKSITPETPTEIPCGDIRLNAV

In ChEMBL document CHEMBL1154983, “Arylpiperazine-containing pyrrole 3-carboxamide derivatives targeting serotonin 5-HT(2A), 5-HT(2C), and the serotonin transporter as a potential antidepressant” (Bioorg Med Chem Lett, 2010):

Tests used:
[1] = molecular target: 5-hydroxytryptamine receptor 2A (Homo sapiens, UniProt P28223); experiment: Inhibition of 5-HT2A receptor
[2] = molecular target: Sodium-dependent serotonin transporter (Homo sapiens, UniProt P31645); experiment: Inhibition of SERT

SMILES | pKi [1] | pKi [2]
O=S1(=O)N(CCN2CC=C(c3c[nH]c4cc(F)ccc34)CC2)c2cccc3c2N1CCC3 | 9.09 | 8.64
Fc1ccc(OC[C@@H]2CNCCO2)c2c1CCC2 [LUBAZODONE] | 7.07 | 7.68

pKi: −log10 of the molar value.
